Drawing on ChEMBL document CHEMBL4392822, “HSP60/10 chaperonin systems are inhibited by a variety of approved drugs, natural products, and known bioactive molecules” (Bioorg Med Chem Lett, 2019), this text covers IC50 for nine molecules.

Amino acid sequences for entries named in this document (tags omitted).
UniProt P10809, whole entry: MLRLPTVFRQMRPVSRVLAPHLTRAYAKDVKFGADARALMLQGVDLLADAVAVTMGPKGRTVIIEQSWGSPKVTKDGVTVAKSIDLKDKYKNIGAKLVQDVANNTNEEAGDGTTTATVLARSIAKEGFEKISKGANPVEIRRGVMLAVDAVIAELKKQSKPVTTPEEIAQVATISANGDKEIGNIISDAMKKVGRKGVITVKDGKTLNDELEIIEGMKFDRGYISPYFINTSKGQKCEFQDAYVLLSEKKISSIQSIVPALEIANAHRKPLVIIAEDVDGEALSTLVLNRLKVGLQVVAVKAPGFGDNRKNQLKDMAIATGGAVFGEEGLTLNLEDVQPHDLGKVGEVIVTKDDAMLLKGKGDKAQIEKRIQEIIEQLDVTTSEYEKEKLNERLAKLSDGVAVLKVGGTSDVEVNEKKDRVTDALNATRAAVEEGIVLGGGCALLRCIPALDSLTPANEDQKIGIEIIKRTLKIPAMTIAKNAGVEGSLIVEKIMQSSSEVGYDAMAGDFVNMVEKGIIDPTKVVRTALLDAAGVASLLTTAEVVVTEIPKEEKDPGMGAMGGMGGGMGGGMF
UniProt P0A6F5, whole entry, looked up: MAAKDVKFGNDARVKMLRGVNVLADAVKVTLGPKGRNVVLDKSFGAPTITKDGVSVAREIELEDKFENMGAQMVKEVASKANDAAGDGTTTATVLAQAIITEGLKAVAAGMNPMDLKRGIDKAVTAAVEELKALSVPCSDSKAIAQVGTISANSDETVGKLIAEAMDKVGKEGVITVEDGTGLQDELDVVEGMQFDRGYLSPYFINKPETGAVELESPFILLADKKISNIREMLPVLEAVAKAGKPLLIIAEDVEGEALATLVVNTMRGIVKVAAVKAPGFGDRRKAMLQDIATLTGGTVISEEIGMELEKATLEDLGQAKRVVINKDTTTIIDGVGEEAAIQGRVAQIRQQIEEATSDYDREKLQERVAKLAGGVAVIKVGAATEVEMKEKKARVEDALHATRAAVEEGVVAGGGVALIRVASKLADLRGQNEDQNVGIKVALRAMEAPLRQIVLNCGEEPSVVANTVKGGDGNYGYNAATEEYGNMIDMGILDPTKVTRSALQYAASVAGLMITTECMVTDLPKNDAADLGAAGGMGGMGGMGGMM

In one experiment the target is HSP60/HSP10 (Homo sapiens, UniProt P10809).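 Further: His-tagged human HSP60 with HSP10 refolding denatured MDH, read as MDH activity on mesoxalate by malachite green spectrometry, inhibition of refolding.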
Experiment [1] addresses T1, E. coli GroEL/ES (Escherichia coli, UniProt P0A6F5).
The next experiment deals with Chaperonin GroEL (Escherichia coli (strain K12), UniProt P0A6F5).
The target of experiment [2] is T1, E. coli GroEL/ES. This is another data set of the same source.
For experiment [3], the target named is T2, Thiosulfate sulfurtransferase (Homo sapiens, UniProt Q16762).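 Further: native rhodanese of unspecified species, enzyme activity read after 45 min by spectrophotometric detection of Fe(SCN)3 colour, IC50 reflects activity reduction.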
T2 sequence (Q16762 whole entry): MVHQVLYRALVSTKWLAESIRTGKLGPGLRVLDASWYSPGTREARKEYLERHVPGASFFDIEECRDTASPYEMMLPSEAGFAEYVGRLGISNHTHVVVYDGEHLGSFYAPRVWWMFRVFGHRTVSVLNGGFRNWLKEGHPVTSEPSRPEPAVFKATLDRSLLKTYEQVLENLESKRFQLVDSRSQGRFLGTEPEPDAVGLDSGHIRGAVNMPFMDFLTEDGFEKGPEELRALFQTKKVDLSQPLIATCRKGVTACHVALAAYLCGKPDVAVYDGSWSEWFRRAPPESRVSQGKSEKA
Format: ADME.

In the case of `O=C(O)c1ccccc1-c1c2cc(I)c(=O)c(I)c-2oc2c(I)c(O)c(I)cc12`, the IC50 at HSP60/HSP10 was 2.9 µM; on E. coli GroEL/ES [1], 0.5 µM; on Chaperonin GroEL, 222 µM; on E. coli GroEL/ES [2] it was 1.2 µM. Take `CC1=NCCc2c1[nH]c1cc(O)ccc21` [HARMALOL]: at E. coli GroEL/ES [2], 16 µM corresponded to half-maximal inhibition (IC50). On the same count and under the same terms, under `O=C1C=C2CC3(O)COc4c(ccc(O)c4O)C3=C2C=C1O` (configuration not stated) [HEMATEIN] stands 1.2 µM. As to `C[C@H](CCC(=O)O)[C@H]1CC[C@H]2[C@@H]3CC[C@@H]4C[C@H](O)CC[C@]4(C)[C@H]3CC[C@]12C` [LITHOCHOLIC ACID], half-maximal inhibition against E. coli GroEL/ES [1] (IC50) was put at 16 µM.

`Nc1ccc(O)c(C(=O)O)c1` [MESALAMINE] came in with an IC50 at HSP60/HSP10 of 12 µM. The same measure, in the same setting: under `Cc1cc2nc3c(=O)[nH]c(=O)nc-3n(C[C@H](O)[C@H](O)[C@H](O)COP(=O)(O)O)c2cc1C` [RIBOFLAVIN 5'-PHOSPHATE SODIUM] stands 80 µM. In the case of `Cc1ccc(C(=O)Nc2ccc(S(=O)(=O)O)c3cc(S(=O)(=O)O)cc(S(=O)(=O)O)c23)cc1NC(=O)c1cccc(NC(=O)Nc2cccc(C(=O)Nc3cc(C(=O)Nc4ccc(S(=O)(=O)O)c5cc(S(=O)(=O)O)cc(S(=O)(=O)O)c45)ccc3C)c2)c1` [SURAMIN], 16 µM corresponded to half-maximal inhibition on E. coli GroEL/ES [2] (IC50).

Molecule `C=C(NC(=O)C(=C)NC(=O)c1csc(C2=N[C@@H]3c4csc(n4)[C@H]4NC(=O)c5csc(n5)[C@H]([C@](C)(O)[C@@H](C)O)NC(=O)[C@H]5CSC(=N5)/C(=C/C)NC(=O)[C@H]([C@@H](C)O)NC(=O)c5csc(n5)[C@]3(CC2)NC(=O)[C@H](C)NC(=O)C(=C)NC(=O)[C@H](C)NC(=O)[C@H]([C@@H](C)CC)N[C@@H]2C=Cc3c([C@H](C)O)cc(nc3[C@H]2O)C(=O)O[C@@H]4C)n1)C(N)=O` [THIOSTREPTON] showed an IC50 on E. coli GroEL/ES [2] of 16 µM. Molecule `CC1=C(/C=C/C(C)=C/C=C/C(C)=C/C(=O)O)C(C)(C)CCC1` [TRETINOIN] returned an IC50 in experiment [3] of 91 µM.
